Measurements: ChEMBL document CHEMBL1146655, “Novel thrombin inhibitors incorporating weakly basic heterobicyclic P1-arginine mimetics: optimization via modification of P1 and P3 moieties” (Bioorg Med Chem Lett, 2004)

Molecular target: Prothrombin (Homo sapiens, UniProt P00734)
Test: In vitro inhibition of human thrombin.

Ki: 1440 nM
Structure (SMILES): Cc1ccc(NS(=O)(=O)Cc2ccc(F)cc2)c(=O)n1CC(=O)N[C@H]1CCc2nc(N)sc2C1
